Values of other authors in PMC7198388, “Radiohybrid Ligands: A Novel Tracer Concept Exemplified by ^18F- or ^68Ga-Labeled rhPSMA Inhibitors” (Journal of Nuclear Medicine, 2020).

Test system: LNCaP tumor-bearing male CB-17 SCID mice
Conditions: 1 h p.i., mean ± SD, n = 4, cited from earlier work

O=C(O)CC[C@H](NC(=O)N[C@@H](CCCCNC(=O)[C@H](Cc1ccc2ccccc2c1)NC(=O)c1ccc(CNC(=O)[C@H](CCC(=O)O)NC(=O)[C@H](CCC(=O)O)NC(=O)c2ccc(F)nc2)cc1)C(=O)O)C(=O)O
Biodistribution, Adrenals: 7.5 ± 3.4 %ID/g
Biodistribution, Blood: 0.48 ± 0.29 %ID/g
Biodistribution, Bone: 0.89 ± 0.67 %ID/g
Biodistribution, Heart: 1.4 ± 0.5 %ID/g
Biodistribution, Intestine: 1.1 ± 0.3 %ID/g
Biodistribution, Kidneys: 123.3 ± 52.1 %ID/g
Biodistribution, Liver: 1.2 ± 0.5 %ID/g
Biodistribution, Lung: 1.8 ± 1.0 %ID/g
Biodistribution, Muscle: 0.64 ± 0.41 %ID/g
Biodistribution, Pancreas: 1.4 ± 0.7 %ID/g
Biodistribution, Spleen: 16.68 ± 5.09 %ID/g
Biodistribution, Stomach: 0.96 ± 0.86 %ID/g
Biodistribution, Tumor (LNCaP tumor): 7.4 ± 0.7 %ID/g
